Results: ChEMBL document CHEMBL5729324, “Aromatic heterocyclic substituted olefin compound, preparation method for same, pharmaceutical composition of same, and applications thereof” (2022)

Target: T1, TGF-beta receptor type-1 (Homo sapiens, UniProt P36897)
T1 sequence (P36897 whole entry): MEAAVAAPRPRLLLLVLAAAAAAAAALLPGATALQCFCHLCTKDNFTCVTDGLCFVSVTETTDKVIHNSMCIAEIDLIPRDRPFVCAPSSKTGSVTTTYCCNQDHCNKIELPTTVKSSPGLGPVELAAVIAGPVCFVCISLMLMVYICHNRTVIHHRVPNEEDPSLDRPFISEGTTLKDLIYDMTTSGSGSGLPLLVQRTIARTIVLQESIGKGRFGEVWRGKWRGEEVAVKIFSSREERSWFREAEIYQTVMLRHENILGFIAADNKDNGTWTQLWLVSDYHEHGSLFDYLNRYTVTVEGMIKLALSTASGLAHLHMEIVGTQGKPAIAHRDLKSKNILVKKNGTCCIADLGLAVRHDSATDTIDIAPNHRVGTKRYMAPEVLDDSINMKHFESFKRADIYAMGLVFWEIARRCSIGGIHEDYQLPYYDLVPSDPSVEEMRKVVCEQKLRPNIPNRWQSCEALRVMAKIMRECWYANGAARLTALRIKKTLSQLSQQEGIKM
Assay: Enzyme Activity Inhibition: 1. Preparation of a 1× kinase buffer: 40 mM Tris (pH 7.5), 20 mM MgCl2, 0.10% BSA, 1 mM DTT.2. Compound preparation: The final detection concentration of the compound was 10 μM, which was prepared to a 100-fold concentration, i.e., 1 mM. 100 μL of the 100-fold compound was added in the second well of the 384-well plate, and 60 μL of 100% DMSO was added to the other …

Row | SMILES | IC50
1 | CNC(=O)c1cnc2ccc(/C=C/c3cccc(C)n3)cn12 | 88 nM
2 | CNC(=O)c1cnc2ccc(/C=C\c3cccc(C)n3)cn12 | 9.2 nM
3 | Cc1cccc(/C=C\c2ccc3ncc(C(=O)NOC4CCCCO4)n3c2)n1 (stereo not drawn) | 35 nM
